Molecules are shown by their SMILES. The strong results were mostly taken out for another list; the other results follow.

The target in the assay is T1, Protein deacetylase HDAC6 (Homo sapiens) (UniProt Q9UBN7).
T1 sequence (whole entry): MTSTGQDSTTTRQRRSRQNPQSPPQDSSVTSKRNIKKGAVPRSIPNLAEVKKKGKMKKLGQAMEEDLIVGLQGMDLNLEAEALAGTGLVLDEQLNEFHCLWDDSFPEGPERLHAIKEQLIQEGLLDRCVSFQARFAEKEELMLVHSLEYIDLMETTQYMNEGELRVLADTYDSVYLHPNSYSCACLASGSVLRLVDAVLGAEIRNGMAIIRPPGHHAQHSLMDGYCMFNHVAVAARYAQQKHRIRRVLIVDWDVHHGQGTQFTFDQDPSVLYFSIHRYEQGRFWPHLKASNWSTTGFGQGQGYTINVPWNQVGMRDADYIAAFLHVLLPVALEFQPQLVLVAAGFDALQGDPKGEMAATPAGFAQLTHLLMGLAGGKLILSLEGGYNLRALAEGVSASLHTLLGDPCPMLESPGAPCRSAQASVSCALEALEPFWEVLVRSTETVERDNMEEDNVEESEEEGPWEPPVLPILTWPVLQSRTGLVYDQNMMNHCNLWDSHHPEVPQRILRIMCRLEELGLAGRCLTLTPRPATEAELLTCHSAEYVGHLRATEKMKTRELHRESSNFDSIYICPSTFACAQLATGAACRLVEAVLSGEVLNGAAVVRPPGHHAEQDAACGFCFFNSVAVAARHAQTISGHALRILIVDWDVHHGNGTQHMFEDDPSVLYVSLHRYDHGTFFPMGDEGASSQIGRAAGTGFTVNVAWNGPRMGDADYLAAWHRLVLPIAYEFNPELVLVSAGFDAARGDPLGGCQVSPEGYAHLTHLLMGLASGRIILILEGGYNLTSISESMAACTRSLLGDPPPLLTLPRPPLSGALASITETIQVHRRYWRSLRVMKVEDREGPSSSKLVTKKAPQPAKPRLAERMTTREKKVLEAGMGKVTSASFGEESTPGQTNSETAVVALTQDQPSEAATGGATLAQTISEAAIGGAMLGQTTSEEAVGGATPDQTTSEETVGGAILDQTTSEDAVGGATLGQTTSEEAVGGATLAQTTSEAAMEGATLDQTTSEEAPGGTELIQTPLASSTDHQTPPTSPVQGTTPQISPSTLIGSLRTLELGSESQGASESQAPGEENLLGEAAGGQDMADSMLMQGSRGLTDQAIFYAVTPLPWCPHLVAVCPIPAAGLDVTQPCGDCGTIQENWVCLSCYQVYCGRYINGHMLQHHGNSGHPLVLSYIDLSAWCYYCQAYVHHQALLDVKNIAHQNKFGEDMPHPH
The following applies: at 10 µM.
For `COc1ccc(CC(C)NCC(O)c2ccc(O)c(NC=O)c2)cc1` (stereo unspecified), the inhibition (in general, the relative decrease from the control value, in per cent) was -7.47%.

The values are drawn from ChEMBL document CHEMBL4808148, “HDAC6 screening dataset using tau-based substrate in an enzymatic assay yields selective inhibitors and activators” (2021).
